# Measured affinities in a library of Ab-14 light chain variants

Target: peptide PDVDLGDISGINAS, taken from heptad repeat 2 (HR2) of SARS-CoV-2 spike.

Ab-14 is the parent antibody, in scFv form: VH, then a 15-residue (Gly4Ser)3 linker, then VL. The heavy chain is unchanged in all variants.
VH: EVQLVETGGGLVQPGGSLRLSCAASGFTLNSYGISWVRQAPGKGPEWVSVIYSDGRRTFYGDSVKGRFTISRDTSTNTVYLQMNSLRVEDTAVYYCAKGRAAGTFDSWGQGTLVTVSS
VL: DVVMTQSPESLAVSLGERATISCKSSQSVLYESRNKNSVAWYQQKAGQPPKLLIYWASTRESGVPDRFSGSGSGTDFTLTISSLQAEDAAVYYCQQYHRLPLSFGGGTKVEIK

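Phage display of a naive human antibody library on the peptide gave the parent. AAYL50 was designed without a model: most single CDR substitutions and a random sample of double and triple ones. The scFvs were displayed on barcoded MATa yeast, the peptide on MATalpha yeast. Mating (16 h, 30 °C) was followed by selection of diploids and sequencing of their barcodes. Scores were corrected for input abundance and mapped to Kd with protein pairs of known affinity run in the same pool. The assay was run in three technical replicates.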

Positions count from residue 1 of the parent VL; V39I puts I in place of V.
Values are log10 of the apparent Kd in nM; lower means stronger binding.
The mean shown is taken over the replicates in which the pair was detected.
An entry "not detected" has no value in the source: the pair was not observed among the diploids in any replicate. This suggests poor binding but is not conclusive.

| changes | mean log10 Kd (nM) | detected | control signals |
|---|---|---|---|
| V39I S62G Q95V | 1.50 | 3/3 | 0/9 |
| R60C E61M S103E | 2.59 | 3/3 | 0/9 |
| Y31C S38C H98T | 2.13 | 3/3 | 0/9 |
| S26W N35F Q96G | not detected | 0/3 | 0/9 |
| S62M Q95A Q96I | 4.14 | 1/3 | 0/9 |
| K24G Q27G S103E | 2.03 | 3/3 | 2/9 |
| N37Q T59Y R60T | 4.86 | 1/3 | 3/9 |
| K24S E32F L100P | not detected | 0/3 | 1/9 |
| S28Q L30N H98N | 1.70 | 3/3 | 0/9 |
| W56E Q96Y S103W | 0.18 | 3/3 | 6/9 |
| Q27D S33Y W56G | 0.15 | 3/3 | 1/9 |
| Y31E S33R H98I | 1.37 | 3/3 | 2/9 |
| S28P S58F | 4.38 | 2/3 | 2/9 |
| S28F S33K A40Q | not detected | 0/3 | 0/9 |
| A57H E61Q Y97G | not detected | 0/3 | 1/9 |
| S33P S38N H98S | 1.16 | 3/3 | 0/9 |
| R34K A40E E61A | 3.50 | 1/3 | 1/9 |
| R34F Q96P Y97D | 4.43 | 1/3 | 2/9 |
| S25Q K36Y E61R | 1.81 | 3/3 | 0/9 |
| S28F R60N Q95A | not detected | 0/3 | 1/9 |
| Q27Y V29F K36I | 0.88 | 3/3 | 2/9 |
| S26N Q27W T59F | 2.09 | 3/3 | 1/9 |
| S33A N37E W56S | 0.63 | 3/3 | 0/9 |
| S26E A40F R99L | not detected | 0/3 | 1/9 |
| S33I W56D L100K | 4.48 | 1/3 | 1/9 |
| S33N E61C Q96M | 3.10 | 3/3 | 2/9 |
| N35T Q96M S103P | 4.32 | 1/3 | 3/9 |
| R34G E61M P101M | -0.06 | 3/3 | 1/9 |
| S33I T59R S62E | 2.88 | 3/3 | 4/9 |
| S58H T59E P101W | 3.99 | 1/3 | 3/9 |
| S25P N35I N37R | 3.63 | 1/3 | 0/9 |
| S26L S62I R99Q | 1.25 | 3/3 | 0/9 |
| S58R R99N L102Q | not detected | 0/3 | 1/9 |
| Q27R Q96F L102T | 5.98 | 1/3 | 0/9 |
| V39K S103R | not detected | 0/3 | 2/9 |
| K24G S38G R99P | 4.40 | 1/3 | 4/9 |

Further variants, results first:

| mean log10 Kd (nM) | detected | control signals | changes |
|---|---|---|---|
| 3.49 | 3/3 | 2/9 | K24H S38C R60V |
| 2.55 | 3/3 | 0/9 | R34M A57S S58C |
| 3.08 | 2/3 | 2/9 | K24W N37L H98R |
| 3.34 | 1/3 | 0/9 | Q95P Y97P L100K |
| 3.31 | 1/3 | 1/9 | N35P N37S Q95E |
| 4.78 | 3/3 | 4/9 | K36Y A40D R60D |
| 2.39 | 3/3 | 3/9 | V29L E32A S58I |
| not detected | 0/3 | 0/9 | Y31M A40D W56S |
| 4.44 | 1/3 | 3/9 | S28V S58A S62W |
| 4.14 | 2/3 | 1/9 | N35D A57P |
| 4.62 | 1/3 | 0/9 | Q95V Q96D P101V |
| 4.88 | 2/3 | 4/9 | K24N V29D L100C |
| 3.34 | 1/3 | 1/9 | R34P T59D R99C |
| 3.33 | 3/3 | 2/9 | Y31T N35M R99W |
| 2.18 | 3/3 | 1/9 | S26E T59C Q95Y |
| not detected | 0/3 | 0/9 | S25H P101L L102C |
| not detected | 0/3 | 0/9 | A57V Q95N |
| not detected | 0/3 | 0/9 | V29W L30F L102N |
| 1.29 | 3/3 | 1/9 | L30T R34Q S58K |
| 2.71 | 3/3 | 5/9 | S26A E32R A57S |
| 0.46 | 3/3 | 1/9 | V29L Y31M L100M |
| 0.83 | 3/3 | 1/9 | S26W E61C H98S |
| 3.06 | 2/3 | 1/9 | K24A N35G Q96V |
| not detected | 0/3 | 2/9 | S28E E32F R60C |
| not detected | 0/3 | 0/9 | S38H Y97E H98V |
| 0.33 | 3/3 | 0/9 | P101T L102N S103W |
| 4.47 | 2/3 | 4/9 | K24T A40P Y97D |
| not detected | 0/3 | 3/9 | Q27W E32G Y97S |
| not detected | 0/3 | 0/9 | V29L S33W W56P |
| not detected | 0/3 | 0/9 | Y31I S33W S103N |
| not detected | 0/3 | 0/9 | V39N A40P A57V |
| 0.45 | 3/3 | 3/9 | S58D S62M L102C |
| 1.59 | 2/3 | 0/9 | R34L N37S |
| 3.58 | 1/3 | 2/9 | N37T H98V |
| 1.49 | 3/3 | 1/9 | S28C K36A T59H |
| 5.27 | 1/3 | 1/9 | S25E Q27F S103Q |

The last 4 entries again:

| changes | mean log10 Kd (nM) | detected | control signals |
|---|---|---|---|
| R34L N37S | 1.59 | 2/3 | 0/9 |
| N37T H98V | 3.58 | 1/3 | 2/9 |
| S28C K36A T59H | 1.49 | 3/3 | 1/9 |
| S25E Q27F S103Q | 5.27 | 1/3 | 1/9 |

Background: pairings of library AAYL50 with three empty control strains gave a value in 18% of cases (median 4.19, 5th percentile 2.99). Values in that range, when seen in few replicates, are hard to tell from nonspecific mating. For each scFv, signals with the empty controls are counted beside the result.
For reference, the parent read 0.65 as the reference entry and 1.68 as a member of this library.

Source: Engelhart et al. 2022 (doi:10.1038/s41597-022-01779-4), MIT Lincoln Laboratory and A-Alpha Bio; data file from the FLAb repository.